Earlier results on one substance are cited in patent publication US20210221784A1, “COMPOUNDS AND COMPOSITIONS FOR THE TREATMENT OF PAIN” (Université de Strasbourg, priority 2018, published 2021).

The series concerns C57BF6/N male mice. Conditions: previous work, Elhabazi et al. 2012; cited from earlier work.

Consider “N^α-adamantan-1-yl-L-Arg-L-Phe-NH2 acetate”, for which the “development of fentanyl-induced hyperalgesia” value is recorded as “prevents the development of fentanyl-induced hyperalgesia”.
